Assay results taken from paper PMC6274077, “In Vitro Study on Anti-Hepatitis C Virus Activity of Spatholobus suberectus Dunn” (Molecules, 2016).

System: HCV genotype 1b (Con1) replicon
Test: Anti-HCV luciferase reporter assay on Huh-luc/neo-ET replicon cells
Details: 72 h treatment

IFNα-2a: IFNα-2A purchased from Genscript, approved anti-HCV therapy
Anti-HCV Activity (EC50): 7.6e-07 ± 1.15e-07 ng/mL
